{"source": "ChEMBL document CHEMBL4725398", "about": "(Bioorg Med Chem, 2020)", "species_on_record": "Homo sapiens"}
{"smiles": "C=C(Cl)C(=O)Nc1cccc(Nc2nc(Nc3ccc(N4CCN(C(C)=O)CC4)cc3Cl)ncc2Cl)c1", "values": [{"measurement": "Selectivity Index", "value": 6.4}]}
{"smiles": "C=C(Cl)C(=O)Nc1cccc(Nc2nc(Nc3ccc(N4CCN(C(C)=O)CC4)cc3OC)ncc2C(F)(F)F)c1", "values": [{"measurement": "Selectivity Index", "value": 16.1}]}
{"smiles": "C=C(Cl)C(=O)Nc1cccc(Oc2nc(Nc3ccc(N4CCN(C(C)=O)CC4)cc3)ncc2Cl)c1", "values": [{"measurement": "Selectivity Index", "value": 10}]}
{"smiles": "C=C(Cl)C(=O)Nc1cccc(Nc2nc(Nc3ccc(N4CCN(C(C)=O)CC4)nc3)ncc2Cl)c1", "values": [{"measurement": "Selectivity Index", "value": 17.3}]}
{"smiles": "C=C(Cl)C(=O)Nc1cccc(Nc2nc(Nc3ccc(N4CCN(C(C)=O)CC4)c(C)c3)ncc2Cl)c1", "values": [{"measurement": "Selectivity Index", "value": 19.6}]}
{"smiles": "C=C(Cl)C(=O)Nc1cccc(Nc2nc(Nc3ccc(N4CCN(C(C)=O)CC4)cc3)ncc2Cl)c1", "values": [{"measurement": "Selectivity Index", "value": 17.9}]}
{"smiles": "C=C(Cl)C(=O)Nc1cccc(Nc2nc(Nc3ccc(N4CCN(C(C)=O)CC4)c(Cl)c3)ncc2Cl)c1", "values": [{"measurement": "Selectivity Index", "value": 16.6}]}
